Amino acid sequences for entries named in this document (tags omitted).
UniProt P15090, whole entry: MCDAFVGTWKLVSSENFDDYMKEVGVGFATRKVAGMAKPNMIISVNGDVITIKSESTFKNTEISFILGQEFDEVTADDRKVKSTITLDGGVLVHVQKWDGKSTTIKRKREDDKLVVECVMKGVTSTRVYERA
UniProt Q01469, whole entry: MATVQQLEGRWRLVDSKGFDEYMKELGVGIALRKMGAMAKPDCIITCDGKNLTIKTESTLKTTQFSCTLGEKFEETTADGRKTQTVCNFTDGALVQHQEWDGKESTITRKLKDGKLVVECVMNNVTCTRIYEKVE

In patent US8759357B2, “Inhibitors of fatty acid binding protein (FABP)” (Merck Sharp & Dohme Corp., priority 2009, dated 2014):

Assays:
FABP4 = FABP4 (Homo sapiens, UniProt P15090); experiment: TdF (Temperature Dependence Fluorescence) thermal shift assay for FABP4; settings: read-out: FABP4 TdF Kd; 3 μM protein; 15, 50 or 100 μM compound; Kd from ΔTm
Description: TdF (Temperature Dependence Fluorescence) Assay for FABP3 and FABP4
The SAR (Structure Activity Relationship) for FABP3 and FABP4 ligands covered by this invention was interrogated using the TdF (Temperature Dependence Fluorescence) assay or best known as thermal shift assay (M. W. Pantoliana et al, J. Biomol. Screen 6 (2001) 429-440). The TdF assay was mainly conducted in the 96-well based CHROMO-4 real time fluorescence plate reader (BioRad). The Sypro Orange (Sigma-Aldrich), environmentally sensitive fluorescence dye, was used to monitor the protein folding-unfolding transition. […]
The compound of interest was first prepared in DMSO stock (typical concentration: 10 mM). […] The fluorescence signals were acquired with excitation and emission wavelengths centered at 490 and 560 nm respectively. […]
The derivation of TdF-based ligand binding affinity constant (Kd) followed closely those previously formulated by Brandts and Lin, Biochemistry 29 (1990) 6927-6940. In brief, the binding constant of the ligand at the Tm is expressed as below:
[formula] where T0 is the midpoint of unfolding for unliganded protein and Tm is the midpoint of unfolding in presence of ligand. […] The ΔCPu is proportional to the size of protein and is an approximate quantity in the above equation (empirically, ΔCpu=(MW of protein/115)*14 cal/mol*K). […]

FABP5 = FABP5 (Homo sapiens, UniProt Q01469); experiment: TdCD (Temperature-Dependent Circular Dichroism) assay for FABP5; settings: read-out: FABP5 TdCD Kd; compounds at 50 μM and 25 μM; Kd calculated at T=20° C.; 50% uncertainty
Description: [formula] (see Brandts et al and Mayhood et al, shown above) where ΔHL (T) is the van't Hoff enthalpy of ligand binding at temperature T and ΔCpL is the heat capacity upon ligand binding. For simplicity, the ΔCpL and ΔHL (T) were set to zero and −7 kcal/mol respectively. (The ΔCpL accounts for minimal portion of total protein-ligand binding energetics and is therefore set to zero (For example, see Hossein Naghibi et al, Proc. Natl. Acad. Sci. 92, 5597-5599 (1995), where ΔCpL was estimated to ˜2% of ΔHL at 25° C. obtained from calorimetric study of binding Rnase A and 2′-CMP)). TdCD (Temperature-Dependent Circular Dichroism) Assay for FABP3/4/5
JASCO 810 spectropolarimeter was used to measure Circular Dichroism (CD) spectra and temperature-dependent protein unfolding profiles. The instrument is equipped with a 6-cell piezoelectric temperature controller. Ellipticity was monitored at 226 nm as a function of temperature with a 1 mm path length cell. […]
Briefly, the To (midpoint of unfolding for the unliganded protein) was calculated from best fit of the unfolding data to the equation below: […]
Based on estimates for enthalpy of binding, ΔHL (estimated to be −7 kcal/mol) and ligand binding heat capacity ΔCpL (set to be zero), the ligand binding association constant (KL) at temperature T=20° C. were calculated as below. […]

CN(Cc1cccc(Cl)c1)Cc1cc(=O)n2nc(-c3ccccc3)nc2[nH]1
Kd (FABP4): 0.2 to 5 µM | Kd (FABP5): 0.5 to 100 µM
